# Source: PubChem BioAssay AID1851 (National Center for Advancing Translational Sciences (NCATS), 2009)
# Protein sequences, listed by entry. Tags and fused reporters are not part of them.
# UniProt P33261, whole entry, looked up: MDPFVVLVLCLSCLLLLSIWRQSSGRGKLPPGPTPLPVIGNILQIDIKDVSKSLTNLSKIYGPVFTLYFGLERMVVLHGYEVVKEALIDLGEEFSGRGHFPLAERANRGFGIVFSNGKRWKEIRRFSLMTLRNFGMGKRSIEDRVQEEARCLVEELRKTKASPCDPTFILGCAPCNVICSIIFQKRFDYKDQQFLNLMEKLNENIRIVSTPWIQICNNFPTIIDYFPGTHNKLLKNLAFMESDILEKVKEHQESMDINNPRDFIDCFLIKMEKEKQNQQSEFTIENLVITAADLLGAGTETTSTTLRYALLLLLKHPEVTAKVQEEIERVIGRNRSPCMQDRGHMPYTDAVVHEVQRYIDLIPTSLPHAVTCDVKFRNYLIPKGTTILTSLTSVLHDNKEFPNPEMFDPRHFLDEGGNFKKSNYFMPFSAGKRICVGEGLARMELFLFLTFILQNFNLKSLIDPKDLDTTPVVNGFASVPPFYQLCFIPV
# Where “and” joins values, the source holds several entries; their conditions need not be identical. Equal values may be shown once. This list holds what a sample rich in hits left over. Results filed as inconclusive are left out. Calls of active or inactive are those of the source. The call rests on the fitted dose curve; in most records, active means well fitted curve in the direction sought with a large enough effect; inconclusive means small, poorly fitted or top-dose-only effect, or effect the other way; inactive means no such curve, though single readings can be large or run the other way.
# Target: Cytochrome P450 2C19 (Homo sapiens) (UniProt P33261)
# Test: Cytochrome panel assay with activity outcomes
# Settings: recombinant CYP, pro-luciferin dealkylation, luminescence, p450-cyp2c19; series mostly up to 57.1 µM
row,SMILES,AC50
1,COCCn1c(=O)c(-c2cccc(C#N)c2)nc2cnc(Nc3ccccc3)nc21,inactive
2,COc1ccccc1CN1CCC2(CC1)CCN(C(=O)c1csnn1)CC2,inactive
3,O=C(c1cnccn1)N1CCC2(CCCN(c3ccc(-c4ccccc4)cc3)C2)CC1,inactive
4,O=C(c1csnn1)N1CCC[C@@]2(CCN(c3ncccn3)C2)C1,inactive
5,Cc1nc2cnc(Nc3ccccc3)nc2n(CCC#N)c1=O,inactive
6,N#Cc1ccc(CN2CCC3(CC2)CCN(C(=O)c2csnn2)CC3)cc1,inactive
7,COC(=O)N1CCC2(CC1)CN(c1cccc(-c3ccccc3)c1)C2,inactive
8,O=C(c1csnn1)N1CCC2(CCCN(Cc3cc(C(F)(F)F)cc(C(F)(F)F)c3)C2)CC1,inactive
9,O=C(c1csnn1)N1CCC2(CC1)CCN(c1ncccn1)CC2,inactive
10,CC(C)NC(=O)N1CCC2(CC1)CCN(C(=O)c1csnn1)CC2,inactive
11,O=C(c1csnn1)N1CCC2(CC1)CCN(C(c1ccccc1)c1ccccc1)CC2,inactive
12,O=C(c1cnccn1)N1CCC[C@@]2(CCN(Cc3nccs3)C2)C1,inactive
13,COc1ccc(NC(=O)N2CC[C@@]3(CCCN(C(=O)c4csnn4)C3)C2)cc1,inactive
14,CCN(CC)C(=S)SSC(=S)N(CC)CC,active: 5.01 µM and active: 794 nM
15,COc1cccc(Nc2ncc3ncc(=O)n(CCc4ccccc4)c3n2)c1,inactive
16,O=C(c1csnn1)N1CCC[C@@]2(CCN(c3ccncc3)C2)C1,inactive
17,COc1ccc(-n2c(=O)c(-c3cccs3)nc3cnc(Nc4ccccc4)nc32)cc1,inactive
18,O=C(c1cnccn1)N1CCC[C@@]2(CCN(c3ccccc3)C2)C1,inactive
19,COCCn1c(=O)c(-c2ccc(F)cc2)nc2cnc(Nc3cccc(OC)c3)nc21,inactive
20,COc1cccc(Nc2ncc3nc(C)c(=O)n(C)c3n2)c1,inactive
21,Cc1nc2cnc(Nc3ccccc3)nc2n(C2CC2)c1=O,inactive
22,CC(C)CN1CC[C@@]2(CCCN(C(=O)c3cnccn3)C2)C1,inactive
